Like-named read-outs stand apart in the source and are kept apart here.
Assays:
KB-8-5-11 (++Pgp) cells = details: KB-8-5-11 (++Pgp) cells, control buffer
MDR KB-8-5 (+Pgp) cells = details: MDR KB-8-5 (+Pgp) cells, control buffer
KB-3-1 cells (-Pgp) = details: control buffer
[1] = Quantitative biodistribution in wild-type (WT) mice; details: n = 3
MCF-7/MDR1 (+Pgp) cells = details: MCF-7/MDR1 (+Pgp) cells, control buffer
MDR1 Pgp (ABCB1) = details: 2 h post injection, dKO vs WT mice
MCF-7 cells (-Pgp) = details: control buffer
[2] = rats; for Heart to Tissue Ratio, Heart/Blood / Heart to Tissue Ratio, Heart/Liver: n = 3
[3] = 120 min P.I., listed as drawing 4

## CC(C)Oc1cccc2c1[O][67Ga+][O]c1c(cccc1OC(C)C)C=NCC(C)(C)CNCCNCC(C)(C)CN=C2.[I-] [Agent 1A, [ENBDMP-3-isopropoxy-PI-^67Ga]^+]
KB-8-5-11 (++Pgp) cells
  cellular accumulation: low accumulation
MDR KB-8-5 (+Pgp) cells
  cellular accumulation: low accumulation
KB-3-1 cells (-Pgp)
  cellular accumulation: high accumulation
[1]; 5 min P.I.
  Heart to Tissue Ratio, Heart/Blood: 7.772 % ID/g
  Heart to Tissue Ratio, Heart/Liver: 0.206 % ID/g
[1]; 60 min P.I.
  Heart to Tissue Ratio, Heart/Blood: 126.918 % ID/g
  Heart to Tissue Ratio, Heart/Liver: 1.617 % ID/g
[1]; 120 min P.I.
  Heart to Tissue Ratio, Heart/Blood: 146.618 % ID/g
  Heart to Tissue Ratio, Heart/Liver: 3.526 % ID/g
MCF-7/MDR1 (+Pgp) cells
  cellular accumulation: low accumulation
MDR1 Pgp (ABCB1)
  greater brain penetration and retention in mdr1a/1b(-/-) mice compared with WT counterparts: 16 fold
MCF-7 cells (-Pgp)
  cellular accumulation: high accumulation
[2]; 5 min P.I.
  Heart to Tissue Ratio, Heart/Blood: 8.386 % ID/g
  Heart to Tissue Ratio, Heart/Liver: 0.554 % ID/g
[2]; 60 min P.I.
  Heart to Tissue Ratio, Heart/Blood: 49.677 % ID/g
  Heart to Tissue Ratio, Heart/Liver: 4.246 % ID/g
[2]; 120 min P.I.
  heart/blood ratio relative to ratios reported for gallium-bisaminothiolate complexes (WO2008/128058): 10.4 times
  heart/liver ratio relative to ratios reported for gallium-bisaminothiolate complexes (WO2008/128058): 10.8 times
[2]; 120 min P.I., listed as 1a
  Heart to Tissue Ratio, Heart/Blood: 138.825 % ID/g
  Heart to Tissue Ratio, Heart/Liver: 7.782 % ID/g
[2]; [3]
  Heart to Tissue Ratio, Heart/Blood: 138 % ID/g
  Heart to Tissue Ratio, Heart/Liver: 8 % ID/g

From patent US9579408B2, “PET/SPECT agents for applications in biomedical imaging” (Washington University, priority 2011, dated 2017)
